EP0612845A2 (priority 1993, dated 1994)

By UniProt entry, the sequences of proteins in these tests, tags left out.
UniProt P33535, whole entry: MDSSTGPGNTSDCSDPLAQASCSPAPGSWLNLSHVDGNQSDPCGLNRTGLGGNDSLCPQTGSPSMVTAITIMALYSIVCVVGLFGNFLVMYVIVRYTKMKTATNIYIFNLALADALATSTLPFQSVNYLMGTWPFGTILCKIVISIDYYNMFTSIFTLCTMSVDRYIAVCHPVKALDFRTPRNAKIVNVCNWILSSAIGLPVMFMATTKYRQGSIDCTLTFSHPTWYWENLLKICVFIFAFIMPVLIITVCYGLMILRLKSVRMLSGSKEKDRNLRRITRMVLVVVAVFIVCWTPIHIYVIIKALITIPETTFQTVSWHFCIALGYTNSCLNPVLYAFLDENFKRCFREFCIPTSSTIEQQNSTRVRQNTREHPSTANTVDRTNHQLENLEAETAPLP

Molecular target: T1, m-opiate receptor (mOR) cDNA RC8-1 expressed in COS cells (Rattus norvegicus, UniProt P33535)
T1 construct: expressed in transfected cells; host or cells: COS cells, transient electroporation with pcDNA1RC8-1; membranes
Format: binding

[D-Pen2,4'-Cl-Phe4,D-Pen5]enkephalin [[³H]DPDPE]
specific recognition of the radioligand: no appreciable specific recognition
